One block for each binder: values may come before it.
Experiments:
[1] = target: T1, human insulin receptor (HIR) (human, UniProt P06213 28-1382, limits assumed); assay: 125I-insulin displacement, solubilised HIR
T1 construct: Detergent-solubilised receptor; The natural receptor is an alpha2-beta2 heterotetramer cleaved from one precursor

[2] = target: T2, soluble HIR ectodomain (sIR) (human, UniProt P06213-2 28-944, limits assumed); assay: FP competition vs FITC-RP9, sIR
T2 construct: extracellular domain

[3] = target: human IGF-1 receptor (HIGF-1R) (human, UniProt P08069 31-1367); assay: 125I-IGF-1 competition, solubilised HIGF-1R
[4] = target: human insulin receptor (HIR) (human, UniProt P06213 28-1382, limits assumed); assay: Kd(HIR), insulin competition
[5] = target: human insulin receptor (HIR) (human, UniProt P06213 28-1382, limits assumed); assay: HIR Kd, Table 14; competition with 125I-insulin on solubilised HIR (method of Example 3, not restated for this table)
[6] = target: T3, recombinant human IGF-1R (rhIGF-1R) (human, UniProt P08069 31-935); assay: TR-FRET competition with b-20E2 for rhIGF-1R
T3 construct: extracellular domain; Coated on plates in the TRF assay and europium-labelled (LANCE) in the TR-FRET assays; also called rhIGE-1R; Eu3+-rhIGF-1R

B1: S173 (peptide)
peptide: LDALDRLMRYFEERPSL
- Kd [1]: 1200 nM

B3: S127 (peptide)
peptide: WSDFYSYFQGLD
- Kd [1]: 1200 nM

B7: S116 (peptide)
peptide: FHENFYGWFVRQVSKK
- Kd [1]: 1400 nM

B11: E8 (peptide)
peptide: GGTVWPGYEWLRNA
- IC50 [6]: 175 nM

B12: S227 (peptide)
peptide: CGGFHENFYDWFVRQVSKK
- Kd [1]: 510 nM

Now from value to binder:

- IC50 [2]: 119 nM
B2: S391 (peptide)
peptide: SFYDWFERQLG
notes: also called truncated-(-GSLDE)RP9(-KK)

- Kd [3]: 1500 nM
B4: 539 (peptide)
peptide: MADYKDDDDKWLDQEWAWVQCEVYGRGCPSGGSGGSGSLDESFYDWFERQLGKKAAAGAPVPYPDPLEPRPG
notes: recombinant dimer with tags at both ends; also called D8-6aa-RP9

- Kd [1]: 1400 nM
B5: S240 (peptide)
peptide: RNANFYDWFVAELG

- Kd [1]: 1300 nM
B6: S239 (peptide)
peptide: QRNANFYDWFVAELG

- Kd [4]: 3200 nM
B8: 434 (other, not shown: large carriers)
chain: NNNNLGIEGRISEFIEVRAQPAMARGGGTFYEWFESALRKHGAGGGSGGSGGSGGSRGGGTFYEWFESALRKHGAGAAAGAPVPYPDPLEPRAA
notes: MBP fusion; also called G3-12a-G3 (MBP fusion)

- Kd [5]: 3200 nM
B9: RB434 (other, not shown: large carriers)
chain: B8 chain
notes: MBP fusion, uncleaved

- Kd [5]: 2100 nM
B10: RB430 (other, not shown: large carriers)
chain: NNNNLGIEGRISEFIEGRDYKDDDDKFHENFYDWFVRQVSGGSGGSLDALDRLMRYFEERPSLGAPVPYPDPLEPR
notes: MBP fusion, uncleaved; also called RB430 (MBP fusion, uncleaved)

Reference: patent US20030236190A1 (published 2003)
